Structures are written as SMILES. The entries are a selection whose mix differs from that of the whole data set. Calls of active or inactive are those of the source.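 The calls were made as follows: active = activation above the mean activation of all test compounds in the run plus 3 SD (cut at about 38% in these data); inactive = the rest.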

The chains behind the UniProt entries cited, without tags or fusion partners. Where a name states a change or a piece, a line headed by the entry shows the natural chain unless it says otherwise.
UniProt Q96RJ0: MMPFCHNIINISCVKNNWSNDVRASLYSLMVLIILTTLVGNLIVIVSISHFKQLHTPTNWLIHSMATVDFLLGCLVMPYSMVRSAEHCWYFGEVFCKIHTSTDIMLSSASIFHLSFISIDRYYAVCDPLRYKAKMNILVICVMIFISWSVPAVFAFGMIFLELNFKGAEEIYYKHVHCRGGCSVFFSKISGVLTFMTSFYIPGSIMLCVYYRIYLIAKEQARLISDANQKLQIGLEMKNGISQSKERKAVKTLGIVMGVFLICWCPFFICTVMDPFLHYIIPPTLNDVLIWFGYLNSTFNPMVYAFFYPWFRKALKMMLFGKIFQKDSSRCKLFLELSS

In the test the target is Trace amine-associated receptor 1 (Homo sapiens) (UniProt Q96RJ0). Nature of the test: activators of TAAR1 calcium mobilization – Fluo-8 calcium fluorescence, CHO RD-HGA16 cells, primary screen (AID 624467). To be noted: CHO RD-HGA16 TAAR1, Fluo-8 calcium fluorescence; at 3 µM; hits give high values; vehicle wells 0%, saturating PEA agonist 100%. A general note: Calcium flux is commonly read through the fluorescence of an indicator in the cells.
Regarding `C(Cc1nn[nH]n1)Cc1nn[nH]n1`, the activation was inactive: 8.43%. The value for `C/C(N)=N\P(=O)(OCc1ccccc1)OCc1ccccc1` was inactive: 1.98%; that for `Cc1ccc(NP(=O)(Oc2cccc(C)c2)Oc2cccc(C)c2)nc1` was inactive: 1.46%; that for `c1ccc(-c2nn[nH]n2)c(-c2nn[nH]n2)c1` was inactive: 2.09%. Then `CCNC(=S)/N=C(\N)N[N+](=O)[O-]`, with inactive: 7.19%; and `O=C(NC1CCS(=O)(=O)C1)NP(=S)(Oc1ccccc1)Oc1ccccc1` (stereo not drawn), with inactive: -0.86%; and `O=P1(N(CCCl)CCCl)OCCC2CCCCN21` (stereo not drawn), with inactive: 0.65%. Then `CCC(=O)N1C2C3N(C(=O)CC)C1C1N(C(=O)CC)C(C(N1C(=O)CC)N3C(=O)CC)N2C(=O)CC`, with inactive: 15.4%. `O=C(OC1CN2CCC1CC2)c1ccccc1` (stereo not drawn): the activation was inactive: -0.42%. The value for `Cc1ccc(OP(=O)(Nc2ccccn2)Oc2ccc(C)cc2)cc1` was inactive: 9.16%; that for `CC(=O)NC(SC(=S)N(CC(C)C)CC(C)C)C(Cl)(Cl)Cl` (stereo not drawn) was inactive: 0.78%; that for `COC(=O)c1cc2c(s1)N=C(c1ccccc1)N(C)P2(=O)N1CCOCC1` (stereo not drawn) was inactive: -0.83%. `CN(C)C(=O)Oc1noc2ccccc12`: the activation is inactive: 3.52%. Then `O=c1c2cc([N+](=O)[O-])ccc2[nH]c2c([N+](=O)[O-])cc([N+](=O)[O-])cc12`, with inactive: 19%. The value for `Cc1ccccc1OP(=O)(Nc1ccccn1)Oc1ccccc1C` was inactive: 7.28%; that for `CC(NC(=O)COC(=O)C(O)(c1ccccc1)c1ccccc1)c1ccccc1` (stereo not drawn) was inactive: 9.07%. Take `CCOc1ccc(C2=NCC(CBr)S2)cc1` (stereo not drawn): the activation was inactive: -0.24%.

On to `O=P1(Nc2nc3ccc(Cl)cc3s2)COc2ccccc2O1` (stereo not drawn), for which the activation is inactive: 5.07%. The value for `CC(C)(C)C(=O)NC(Sc1ccccc1)C(Cl)(Cl)Cl` (stereo not drawn) was inactive: 17.5%; that for `CCc1cc(O)c([N+](=O)[O-])c(C)c1[N+](=O)[O-]` was inactive: 4.98%; that for `C[C@@H]1C=CCP(=O)(Oc2ccccc2)O1` (stereo partly drawn) was inactive: 3.6%. The value for `C[C@H]1OP(=O)(Oc2ccccc2)C[C@@H]2O[C@@H]21` (stereo partly drawn) was inactive: 9.05%; that for `Cc1ccccc1CN(C)C(=O)COC(=O)C(O)(c1ccccc1)c1ccccc1` was inactive: 5.64%. Then `COC(=O)C1(C)COP(=O)(NCc2ccccc2)OC1` (stereo not drawn), with inactive: 2.08%; and `N#C/C(=C\c1ccc(N(CCBr)CCBr)cc1)C(N)=O`, with inactive: 0%.

Consider `CC(=O)c1ccc(N2CC2c2ccncc2)cc1` (stereo not drawn), for which the activation is inactive: 1.52%. The value for `CC(=O)Nc1ccc(Oc2c([N+](=O)[O-])cc([N+](=O)[O-])cc2[N+](=O)[O-])cc1` was inactive: 6.22%.

In the case of `CC(=O)Nc1ccc([As](=O)(O)O)c(O)c1`, the activation was inactive: 2.98%.

These data come from PubChem BioAssay AID624467 (The Scripps Research Institute Molecular Screening Center, 2012).
